The target in the assay is CSNK1A1 (Homo sapiens (Human), UniProt P48729). Description: CSNK1A1 Assay 2 (ADP-Glo, 1 μM ATP). To be noted: read-out: CSNK1A1 Assay 2 IC50 [mol/l] (median), comparison compounds of WO 2016/120196. Background: ADP-Glo first removes unused ATP, then detects ADP through luciferase.

By UniProt entry, the sequences of proteins in these tests, tags left out.
UniProt P48729, whole entry: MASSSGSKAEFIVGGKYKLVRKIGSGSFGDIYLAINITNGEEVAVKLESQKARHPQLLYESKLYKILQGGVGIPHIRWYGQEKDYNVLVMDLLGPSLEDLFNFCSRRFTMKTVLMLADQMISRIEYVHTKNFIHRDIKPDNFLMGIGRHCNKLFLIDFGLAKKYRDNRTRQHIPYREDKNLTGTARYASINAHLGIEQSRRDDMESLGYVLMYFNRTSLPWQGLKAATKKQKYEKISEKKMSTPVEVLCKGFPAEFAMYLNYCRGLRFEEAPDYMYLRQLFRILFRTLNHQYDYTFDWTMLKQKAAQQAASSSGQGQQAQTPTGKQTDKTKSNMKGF

For `CN1CCc2[nH]c(-c3ccnc(NC(=O)C4CC4)c3)c(Nc3ccccc3)c2C1=O`, the IC50 was found to be 4.51 nM.
